Earlier results in paper PMC6166790 (Nature, 2018).
Like-named read-outs stand apart in the source and are kept apart here.

What was measured:
[1] = system: CLR/RAMP1
[2] = system: RAMP1 D113A (CGRP receptor); conditions: RAMP1 D113^RA mutation
[3] = system: CLR alanine mutants (CGRP receptor)
[4] = system: models of inflammatory bowel disease, and hypertension
[5] = system: CTR and CLR with RAMP1; conditions: CTR or CLR with RAMP1

Calcitonin gene-related peptide [CGRP]
receptor response selectivity [1]: selective response to CGRP
CGRP potency at mutant [2]: small decrease in CGRP potency
CGRP mediated cAMP signalling at mutant ([3]; CLR D280^ECL2 mutagenesis): greatly impacts CGRP mediated cAMP signalling
CGRP potency at mutant ([3]; CLR D287^ECL2 mutant): relatively limited effects on CGRP potency
CGRP-mediated cAMP production, role of ECL3 ([3]; CLR ECL3 alanine mutagenesis): limited role of this domain in CGRP-mediated cAMP production
CGRP potency at mutant ([3]; CLR H289^5.34/ECL2 mutant): no impact
CGRP potency at mutant ([3]; CLR H289^ECL2 mutant): relatively limited effects on CGRP potency
CGRP signalling at mutant ([3]; CLR I284^ECL2 alanine mutant): marked impairment in CGRP signalling
CGRP peptide potency at mutant ([3]; CLR N200^ECL1 alanine): no impact on CGRP peptide potency
CGRP peptide potency at mutant ([3]; CLR Q202^ECL1 alanine): no impact on CGRP peptide potency
CGRP potency at mutant ([3]; CLR S286^ECL2 mutant): relatively limited effects on CGRP potency
CGRP signalling at mutant ([3]; CLR T191^2.64 alanine mutant): marked impairment in CGRP signalling
CGRP potency at mutant ([3]; CLR T239^3.56 mutant): no impact
CGRP peptide potency at mutant ([3]; CLR V205^ECL1 alanine): no impact on CGRP peptide potency
CGRP potency at mutant ([3]; CLR V243^ICL2 mutant): no impact
CGRP potency at mutant ([3]; CLR W254^4.44 mutant): decreased CGRP potency
CGRP signaling at mutant ([3]; CLR W283^ECL2 to alanine): highly detrimental to CGRP signaling
CGRP potency at mutant ([3]; CLR Y278^ECL2 mutant): decreased CGRP potency
protective effect [4]: protective in models of inflammatory bowel disease, and hypertension
affinity of receptor for CGRP [5]: high affinity
